In the assay the target is rat orexin-1 receptor (Rattus norvegicus (Rat), UniProt P56718). The experiment in a line: FLIPR Ca2+ Flux Assay, orexin-1 receptor. The settings on record: CHO cells expressing the rat orexin-1 receptor; agonist 70 pM Ala-6,12 human orexin-A; read-out: hOX1R FLIPR IC50. The class given is cell-based. The procedure: In a typical experiment the OX1 and OX2 receptor antagonistic activity of the compounds of the present invention was determined in accordance with the following experimental method. For intracellular calcium measurements, Chinese hamster ovary (CHO) cells expressing the rat orexin-1 receptor or the human orexin-2 receptor, are grown in Iscove's modified DMEM containing 2 mM L-glutamine, […], 1% hypoxanthine-thymidine supplement, 100 U/ml penicillin, 100 μg/ml streptomycin and 10% heat-inactivated fetal calf serum (FCS). The cells are seeded at 20,000 cells/well into Becton-Dickinson black 384-well clear bottom sterile plates coated with poly-D-lysine. […] Within the Fluorescent Imaging Plate Reader (FLIPR, Molecular Devices), test compounds are added to the plate in a volume of 25 μl, incubated for 5 min and finally 25 μl of agonist is added. Fluorescence is measured for each well at 1 second intervals for 5 minutes and the height of each fluorescence peak is compared to the height of the fluorescence peak induced by 70 pM Ala-6,12 orexin-A with buffer in place of antagonist. […] Alternatively, compound potency can be assessed by a radioligand binding assay (described in Bergman et. al. Bioorg. Med. Chem. Lett. 2008, 18, 1425-1430) in which the inhibition constant (Ki) is determined in membranes prepared from CHO cells expressing either the OX1 or OX2 receptor. […]

Protein sequences, listed by entry. Tags and fused reporters are not part of them.
UniProt P56718, whole entry: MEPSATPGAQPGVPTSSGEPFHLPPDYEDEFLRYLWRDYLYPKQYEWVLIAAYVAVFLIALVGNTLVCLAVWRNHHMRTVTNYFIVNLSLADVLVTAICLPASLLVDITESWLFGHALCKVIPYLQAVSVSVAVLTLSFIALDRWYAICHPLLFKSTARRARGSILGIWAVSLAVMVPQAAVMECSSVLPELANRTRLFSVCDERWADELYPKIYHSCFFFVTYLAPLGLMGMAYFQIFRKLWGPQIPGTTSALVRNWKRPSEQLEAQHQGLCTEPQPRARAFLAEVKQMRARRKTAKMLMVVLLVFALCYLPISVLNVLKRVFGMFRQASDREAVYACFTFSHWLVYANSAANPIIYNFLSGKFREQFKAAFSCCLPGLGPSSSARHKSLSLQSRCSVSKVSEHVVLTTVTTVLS

A value given as a limit tells only on which side of the number the result lay.

What is called IC50 is the concentration needed to halve the response being measured. `COc1ccc(C(=O)N2C[C@H](Oc3nccc(C#N)c3C)CC[C@H]2C)c(C2CC2)n1` [Example 5, 2-({(3R,6R)-1-[(2-cyclopropyl-6-methoxypyridin-3-yl)carbonyl]-6-methylpiperidin-3-yl}oxy)-3-methylpyridine-4-carbonitrile]: the IC50 was over 10 µM. As for `COc1ccc(C(=O)N2C[C@H](Oc3nccc(C#N)c3C)CC[C@H]2C)c(-c2ccncc2)n1` [Example 48, 2-({(3R,6R)-1-[(6-methoxy-2,4′-bipyridin-3-yl)carbonyl]-6-methylpiperidin-3-yl}oxy)-3-methylpyridine-4-carbonitrile], the IC50 was over 10 µM.

The values above are taken from US9546152B2 (MERCK SHARP & DOHME CORP., priority 2012, dated 2017).
